Values of other authors in article PMC6680850, “Anion Inhibition Profile of the β-Carbonic Anhydrase from the Opportunist Pathogenic Fungus Malassezia restricta Involved in Dandruff and Seborrheic Dermatitis” (Metabolites, 2019).

Biological target: hCA II
Settings: CO2 hydration reaction, 20 °C, pH 8.3, stopped flow; ref [31]; cited from earlier work

SMILES	Ki
CCN(CC)C(=S)S [Et2NCS2^−, diethyldithiocarbamate]	3.1 µM
NS(=O)(=O)O [NH2SO3H, sulfamic acid]	390 µM
